Laboratory results published in publication PMC5625161 (Pharmacology Research & Perspectives, 2017).

Target: T1, multidrug and toxin extrusion protein (MATE) 1 (SLC47A1) (Homo sapiens, UniProt Q96FL8)
T1 sequence (Q96FL8 1-570): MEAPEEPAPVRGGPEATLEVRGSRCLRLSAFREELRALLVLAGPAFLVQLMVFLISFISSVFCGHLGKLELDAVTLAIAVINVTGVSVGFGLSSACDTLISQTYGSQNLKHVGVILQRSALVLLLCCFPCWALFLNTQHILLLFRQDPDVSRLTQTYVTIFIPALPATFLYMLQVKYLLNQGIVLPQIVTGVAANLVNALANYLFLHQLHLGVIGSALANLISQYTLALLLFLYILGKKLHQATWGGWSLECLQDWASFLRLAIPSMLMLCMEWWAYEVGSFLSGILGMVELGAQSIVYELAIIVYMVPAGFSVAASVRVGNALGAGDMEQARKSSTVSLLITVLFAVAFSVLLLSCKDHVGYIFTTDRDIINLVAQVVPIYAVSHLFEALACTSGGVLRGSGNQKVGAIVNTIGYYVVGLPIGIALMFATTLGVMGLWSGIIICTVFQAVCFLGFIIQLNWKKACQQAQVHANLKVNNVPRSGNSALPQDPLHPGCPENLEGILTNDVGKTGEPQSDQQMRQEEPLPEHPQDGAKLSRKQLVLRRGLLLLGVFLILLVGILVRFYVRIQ
Experiment: In vitro SLC transporter inhibition: MATE1-mediated [14C]-metformin uptake

CN/C(=N/CCSCc1nc[nH]c1C)NC#N [Cimetidine, cimetidine]
MATE1 K i (equates to IC50 (probe ≪≪ Km, assuming competitive inhibition)): 1220 nM | IC50 (≅K i) values MATE1 (probe [14C]-metformin 100 μmol/L, 1.5 min, mean ± SD of three experiments): 1220 ± 87 nM
